{
  "source": "paper PMC11017395",
  "about": "(2024)",
  "key": {"[1]": {"test_system": "P. berghei (Pb)-infected HepG2 cell", "assay": "microbe, parasite or virus in culture", "settings": "Plasmodium berghei, HepG2, read-out: liver-stage PbHepG2 IC50"}, "P. berghei [2]": {"test_system": "P. berghei", "settings": "P. berghei mouse model, oral 50 mg·kg^–1 once daily for 4 days; cited from earlier work"}, "[3]": {"test_system": "P. berghei (Pb)-infected HepG2 cell", "settings": "read-out: PbHepG2 IC50; liver stage; cited from earlier work"}, "P. berghei [4]": {"test_system": "P. berghei", "settings": "in vivo, po"}},
  "note": "Read-outs that look alike come from different tables or passages of the source.",
  "data": [
    {"smiles": "COc1cc(NC(C)CCCN)c2ncccc2c1", "note": "(stereo not drawn) [primaquine, reference compound]", "values": [
      {"measurement": "IC50", "setting": "[1]", "value": 6, "unit": "µM"}
    ]},
    {"smiles": "FC(F)(F)c1noc(-c2ccc(CCN3CCC(Nc4nc5ccccc5[nH]4)CC3)cc2)n1", "note": "[Compound 1]", "values": [
      {"measurement": "in vivo activity / reduction in parasitaemia", "setting": "P. berghei [2]", "value": 99, "unit": "%"},
      {"measurement": "mouse survival", "setting": "P. berghei [2]", "value": 14, "unit": "days"},
      {"measurement": "IC50", "setting": "[3]", "value": 0.49, "unit": "µM"}
    ]},
    {"smiles": "Cc1ccc2[nH]c(NC3CCN(CCc4ccc(-c5noc(C(F)(F)F)n5)cc4)CC3)nc2n1", "note": "[Compound 10]", "values": [
      {"measurement": "MSD (mean survival days)", "setting": "P. berghei [4]", "value": 6, "unit": "days"},
      {"measurement": "activity (%), reduction in parasitemia", "setting": "P. berghei [4]", "value": 52, "unit": "%"}
    ]}
  ]
}
